Columns and labels:
cGVHD model mice = assay: Evaluation of effects of improving ocular complications using cGVHD model animals
Description: cGVHD model mice were used to evaluate whether drug administration improved ocular complications in cGVHD.
The mice were created in the following manner.
Bone marrow transplantation was performed between 7-and 9-week-old allogeneic mice. Specifically, the transplantation was performed using male B10.D2 mice as donors and female BALB/c mice as recipients. This transplantation is hematopoietic stem cell transplantation with matched major histocompatibility complex (MHC) and mismatched minor histocompatibility antigen (MiHA). As controls, non-cGVHD models were also created, in which syngeneic hematopoietic stem cell transplantation was performed (donors and recipients were both BALB/c mice). The transplant method was as follows. The recipient was irradiated with 7 Gy of radiation, then 1 × 10^6 bone marrow cells and 2 × 10^6 spleen cells were each dissolved in 0.1 mL of RPMI solution and placed in one syringe, and a total of 0.2 mL was administered via the tail vein. The transplantation was carried out in a specific pathogen free (SPF) environment, and all experimental animals were similarly fed sterile water and food. The cGVHD model mice and non-cGVHD model mice were each analyzed 4 weeks after transplantation.
The mice were divided into a treatment group in which the compound 1 (concentration: from 0.02% to 0.5%) was administered by eye drops to GVHD model mice (hereinafter referred to as the H-1129 group), and a vehicle group in which phosphate-buffered saline (PBS) as a placebo was administered by eye drops to GVHD model mice. These two groups were compared with a control group in which PBS as a placebo was administered by eye drops to non-GVHD mice.
The eye drops were administered from the day before transplantation until the 27th day after transplantation. On the last day, the systemic GVHD scores and the tear volume by the cotton thread method were measured. The mice were dissected 28 days after transplantation, and the eyelids, eyeballs, and lacrimal glands were histopathologically examined.

By UniProt entry, the sequences of proteins in these tests, tags left out.
UniProt O75116, whole entry: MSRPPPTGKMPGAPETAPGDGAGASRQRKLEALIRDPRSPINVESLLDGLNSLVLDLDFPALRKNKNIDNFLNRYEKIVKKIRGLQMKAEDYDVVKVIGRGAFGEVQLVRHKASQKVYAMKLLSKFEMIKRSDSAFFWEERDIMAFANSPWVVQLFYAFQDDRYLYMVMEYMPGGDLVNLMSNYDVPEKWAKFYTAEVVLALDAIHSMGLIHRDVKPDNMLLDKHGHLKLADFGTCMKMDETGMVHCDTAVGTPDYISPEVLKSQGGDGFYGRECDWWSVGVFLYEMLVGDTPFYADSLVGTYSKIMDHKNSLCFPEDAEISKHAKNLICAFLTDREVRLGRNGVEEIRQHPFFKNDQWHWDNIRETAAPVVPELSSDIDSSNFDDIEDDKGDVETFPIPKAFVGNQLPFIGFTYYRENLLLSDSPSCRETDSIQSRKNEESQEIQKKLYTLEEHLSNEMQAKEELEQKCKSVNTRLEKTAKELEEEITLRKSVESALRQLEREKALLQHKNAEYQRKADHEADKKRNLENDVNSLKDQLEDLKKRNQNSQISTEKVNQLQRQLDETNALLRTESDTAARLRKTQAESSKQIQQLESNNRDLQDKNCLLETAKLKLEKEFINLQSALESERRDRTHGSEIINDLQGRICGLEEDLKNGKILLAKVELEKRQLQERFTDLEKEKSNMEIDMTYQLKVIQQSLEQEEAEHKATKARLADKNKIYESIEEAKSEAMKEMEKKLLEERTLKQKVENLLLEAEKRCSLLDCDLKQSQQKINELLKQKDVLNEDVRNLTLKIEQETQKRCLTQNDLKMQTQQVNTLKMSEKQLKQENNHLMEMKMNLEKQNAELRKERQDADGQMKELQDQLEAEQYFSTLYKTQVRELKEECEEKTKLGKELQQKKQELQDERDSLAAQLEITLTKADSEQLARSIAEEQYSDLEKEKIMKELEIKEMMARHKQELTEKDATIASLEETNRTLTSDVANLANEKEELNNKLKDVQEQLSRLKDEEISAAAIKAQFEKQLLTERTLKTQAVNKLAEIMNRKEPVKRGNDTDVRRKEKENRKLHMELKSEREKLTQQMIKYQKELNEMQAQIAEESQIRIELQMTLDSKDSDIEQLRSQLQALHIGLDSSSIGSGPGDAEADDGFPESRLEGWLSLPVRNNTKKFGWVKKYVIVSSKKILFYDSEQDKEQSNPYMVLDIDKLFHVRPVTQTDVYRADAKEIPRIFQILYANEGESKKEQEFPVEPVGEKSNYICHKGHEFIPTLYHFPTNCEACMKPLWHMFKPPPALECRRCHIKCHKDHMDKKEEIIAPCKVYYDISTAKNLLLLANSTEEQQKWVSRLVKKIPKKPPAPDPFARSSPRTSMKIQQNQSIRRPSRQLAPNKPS
UniProt Q13464, whole entry: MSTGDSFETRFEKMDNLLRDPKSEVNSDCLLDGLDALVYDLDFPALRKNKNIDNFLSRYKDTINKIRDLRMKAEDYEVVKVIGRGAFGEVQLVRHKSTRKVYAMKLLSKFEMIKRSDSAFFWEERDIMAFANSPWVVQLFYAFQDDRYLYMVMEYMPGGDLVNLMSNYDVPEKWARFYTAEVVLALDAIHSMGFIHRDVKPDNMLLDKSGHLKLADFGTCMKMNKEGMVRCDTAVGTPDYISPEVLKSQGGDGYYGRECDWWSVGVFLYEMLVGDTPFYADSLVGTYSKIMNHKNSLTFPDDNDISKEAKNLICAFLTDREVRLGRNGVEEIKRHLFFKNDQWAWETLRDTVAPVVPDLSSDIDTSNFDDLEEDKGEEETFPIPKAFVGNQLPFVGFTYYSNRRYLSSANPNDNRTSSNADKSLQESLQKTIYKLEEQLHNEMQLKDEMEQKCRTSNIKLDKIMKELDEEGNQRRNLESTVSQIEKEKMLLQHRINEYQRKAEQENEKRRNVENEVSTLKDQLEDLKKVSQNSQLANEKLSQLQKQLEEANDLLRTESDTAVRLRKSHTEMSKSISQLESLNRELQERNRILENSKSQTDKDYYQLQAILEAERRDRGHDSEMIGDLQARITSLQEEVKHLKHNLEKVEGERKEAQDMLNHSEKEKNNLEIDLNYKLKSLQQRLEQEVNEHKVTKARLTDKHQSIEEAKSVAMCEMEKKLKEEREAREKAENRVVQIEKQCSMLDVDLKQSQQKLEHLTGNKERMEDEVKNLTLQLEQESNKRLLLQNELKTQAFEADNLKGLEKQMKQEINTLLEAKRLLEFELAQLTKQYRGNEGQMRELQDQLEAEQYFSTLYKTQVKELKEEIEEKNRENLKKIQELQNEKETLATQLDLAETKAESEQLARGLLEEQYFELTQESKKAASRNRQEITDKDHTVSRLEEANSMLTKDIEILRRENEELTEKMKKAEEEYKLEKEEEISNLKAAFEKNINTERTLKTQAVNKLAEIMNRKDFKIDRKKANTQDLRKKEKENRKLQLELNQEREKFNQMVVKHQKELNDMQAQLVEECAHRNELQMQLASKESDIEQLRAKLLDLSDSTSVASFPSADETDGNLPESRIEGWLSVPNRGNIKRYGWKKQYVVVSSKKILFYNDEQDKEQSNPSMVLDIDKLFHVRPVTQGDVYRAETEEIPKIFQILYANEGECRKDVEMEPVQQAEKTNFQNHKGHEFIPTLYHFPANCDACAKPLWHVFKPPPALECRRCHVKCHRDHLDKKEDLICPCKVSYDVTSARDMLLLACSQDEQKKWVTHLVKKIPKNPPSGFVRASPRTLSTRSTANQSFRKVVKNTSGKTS

ROCK2 = ROCK2 (Homo sapiens, UniProt O75116); assay: Evaluation of ROCK inhibitory effect (phosphorylation reaction of substrates in vitro); conditions: read-out: ROCK2 inhibitory effect/ IC50 value, phosphorylation reaction of substrates by ROCK2
From the text: (§1) Compounds 1 with various concentrations were used to calculate the concentration which inhibits 50% of the phosphorylation reaction of substrates by ROCK1 or ROCK2 in vitro (hereinafter referred to as "IC50 value").

ROCK1 = ROCK1 (Homo sapiens, UniProt Q13464); assay: as above; conditions: read-out: ROCK1 inhibitory effect/ IC50 value, phosphorylation reaction of substrates by ROCK1
From the text: as §1

[1] = 0.5% eye drops, histopathology 28 days after transplantation, in comparison to the vehicle group

SMILES: C[C@@H]1CNCCCCN1S(=O)(=O)c1ccc2cnccc2c1
- amount of tear secretion (tear volume by the cotton thread method) (cGVHD model mice; 0.5% eye drops from the day before transplantation until the 27th day after transplantation, vehicle group 2.09 ± 0.29 mm, control group 4.29 ± 0.59 mm, p<0.001 vs vehicle): 3.42 ± 0.41 mm
- eyelid fibrosis (cGVHD model mice; [1]): improved
- major transcription factor Snail-positive cells indicating epithelial-mesenchymal transition (cGVHD model mice; [1]): few
- GVHD scores (cGVHD model mice; 0.5% eye drops, systemic GVHD score on the last day, in comparison to the control group (non-GVHD mice)): significantly higher
- IC50 (ROCK2): 230 nM
- IC50 (ROCK1): 520 nM

Reference: patent EP4830707A1, “PHARMACEUTICAL COMPOSITION FOR PREVENTING/TREATING OCULAR COMPLICATION IN CHRONIC GRAFT-VERSUS-HOST DISEASE” (dated 2026)
